Assay results reported in BindingDB's records for doi:10.1016/S0002-8703(03)00398-3 (University of Maryland Hospital, 2003).

Protein sequences, listed by entry. Tags and fused reporters are not part of them.
UniProt P23219, whole entry: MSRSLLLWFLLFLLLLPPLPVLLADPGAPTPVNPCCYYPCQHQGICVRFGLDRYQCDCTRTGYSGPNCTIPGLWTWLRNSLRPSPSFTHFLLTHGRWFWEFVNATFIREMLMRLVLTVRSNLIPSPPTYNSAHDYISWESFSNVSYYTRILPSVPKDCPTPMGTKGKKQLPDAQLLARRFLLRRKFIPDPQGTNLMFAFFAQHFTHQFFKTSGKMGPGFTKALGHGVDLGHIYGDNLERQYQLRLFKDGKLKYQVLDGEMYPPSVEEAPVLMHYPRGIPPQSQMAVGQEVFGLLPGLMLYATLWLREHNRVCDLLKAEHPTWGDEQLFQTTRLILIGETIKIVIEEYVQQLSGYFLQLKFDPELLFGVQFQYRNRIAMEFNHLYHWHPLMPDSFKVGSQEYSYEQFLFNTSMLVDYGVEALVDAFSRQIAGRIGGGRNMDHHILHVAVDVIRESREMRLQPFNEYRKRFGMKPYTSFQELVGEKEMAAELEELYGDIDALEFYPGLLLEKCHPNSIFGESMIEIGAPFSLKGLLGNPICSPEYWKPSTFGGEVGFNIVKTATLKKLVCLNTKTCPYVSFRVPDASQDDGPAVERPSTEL

Target: Prostaglandin G/H synthase 1 (Homo sapiens, UniProt P23219)

Q: How did the Ki turn out when Cc1onc(-c2ccccc2)c1-c1ccc(S(N)(=O)=O)cc1 was run?
A: 700 nM
